SMILES strings stand for the structures. The entries are a selection whose mix differs from that of the whole data set. The source made the active and inactive calls.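 How the source made its calls: active means inhibition above the mean inhibition of all tested compounds plus 3 SD, set per campaign (cut at about 52% in these data); inactive means the rest.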

Chains of the proteins cited; added tags and fusions are not shown.
UniProt Q15596, whole entry: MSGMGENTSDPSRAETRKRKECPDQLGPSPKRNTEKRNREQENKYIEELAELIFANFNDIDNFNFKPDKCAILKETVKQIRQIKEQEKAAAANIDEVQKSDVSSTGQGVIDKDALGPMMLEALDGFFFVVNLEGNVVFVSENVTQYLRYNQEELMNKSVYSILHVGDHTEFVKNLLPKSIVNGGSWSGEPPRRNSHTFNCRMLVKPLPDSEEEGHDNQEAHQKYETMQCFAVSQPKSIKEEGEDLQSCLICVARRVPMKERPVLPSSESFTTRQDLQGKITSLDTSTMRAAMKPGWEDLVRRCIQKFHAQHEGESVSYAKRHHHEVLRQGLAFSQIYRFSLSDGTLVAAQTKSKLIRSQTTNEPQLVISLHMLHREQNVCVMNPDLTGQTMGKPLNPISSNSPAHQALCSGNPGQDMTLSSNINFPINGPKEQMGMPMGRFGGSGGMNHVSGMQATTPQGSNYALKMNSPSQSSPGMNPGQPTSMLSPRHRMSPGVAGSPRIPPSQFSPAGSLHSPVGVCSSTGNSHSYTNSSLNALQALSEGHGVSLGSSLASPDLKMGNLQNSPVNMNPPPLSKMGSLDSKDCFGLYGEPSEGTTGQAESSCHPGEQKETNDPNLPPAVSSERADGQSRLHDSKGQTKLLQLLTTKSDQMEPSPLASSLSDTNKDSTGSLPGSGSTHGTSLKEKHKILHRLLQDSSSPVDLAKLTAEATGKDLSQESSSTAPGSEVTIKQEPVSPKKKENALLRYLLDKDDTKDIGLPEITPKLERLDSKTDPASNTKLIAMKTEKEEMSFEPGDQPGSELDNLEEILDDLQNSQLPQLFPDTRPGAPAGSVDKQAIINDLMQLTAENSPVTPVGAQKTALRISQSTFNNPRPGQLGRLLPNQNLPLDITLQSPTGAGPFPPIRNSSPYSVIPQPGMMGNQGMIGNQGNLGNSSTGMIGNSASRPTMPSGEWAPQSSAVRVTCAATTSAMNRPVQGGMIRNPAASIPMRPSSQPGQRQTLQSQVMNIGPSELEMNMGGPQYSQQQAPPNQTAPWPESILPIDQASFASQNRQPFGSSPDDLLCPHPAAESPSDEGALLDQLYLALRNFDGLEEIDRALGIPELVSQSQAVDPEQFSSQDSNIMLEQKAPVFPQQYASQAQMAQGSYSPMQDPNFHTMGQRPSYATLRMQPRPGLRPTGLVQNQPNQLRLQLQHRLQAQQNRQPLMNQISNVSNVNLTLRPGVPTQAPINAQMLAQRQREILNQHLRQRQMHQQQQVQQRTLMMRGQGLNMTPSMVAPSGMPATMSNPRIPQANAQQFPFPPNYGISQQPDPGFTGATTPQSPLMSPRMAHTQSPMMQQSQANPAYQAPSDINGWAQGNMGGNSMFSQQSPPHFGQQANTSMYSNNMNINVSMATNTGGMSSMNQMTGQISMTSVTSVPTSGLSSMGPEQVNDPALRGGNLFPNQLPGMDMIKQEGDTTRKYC

As a reminder, the inhibition is the change of the read-out against control, counted positive when it falls.

For this assay, the target named is Nuclear receptor coactivator 2 (Homo sapiens) (UniProt Q15596). Briefly: decrease of SRC2 fusion reporter luminescence – cell-based, SRC2 inhibitor project, primary screen (AID 651957).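 Further: 0% = DMSO treated cells and 100% = cells given Gossypol at 36 µM.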 The following applies: HEK293 GAL4-SRC2 luciferase reporter, at 9 µM, stronger effect = higher value. (In general: In a reporter assay the amount or activity of a reporter protein is the signal.)
In the case of `CCC(=O)N(c1ccccc1)C1(COC)CCN(CCn2nnn(CC)c2=O)CC1`, the inhibition was inactive: 6.72%.
The value for `CCC(=O)N(c1ccccc1)C1(COC)CCN(CCc2cccs2)CC1` was inactive: 4.41%.

These data come from PubChem BioAssay AID651957 (The Scripps Research Institute Molecular Screening Center, 2012).
